Measured values taken from patent publication US20230381328A1, “COMPOUND FOR THE PREVENTION OR TREATMENT OF MYASTHENIA GRAVIS” (ABLEVIA BIOTECH GMBH, priority 2020, published 2023).

System: antibodies directed against a peptide derived from the human AChR protein MIR
Assay: In vivo antibody titre lowering by SADC in mice pre-immunized with peptide vaccine T1-1 (peptide ELISA)
Design: species or system BALB/c mice
Conditions: 30 μg SADC i.p.; T1-1 immunized mice; titers up to +72 h
Protocol: Animal models: In order to provide in vivo models with measurable titers of prototypic undesired antibodies in human indications, BALB/c mice were immunized using standard experimental vaccination with KLH-conjugated peptide vaccines derived from established human autoantigens or anti-drug antibodies. […] All experiments were performed in compliance with the guidelines by the corresponding animal ethics authorities.
Immunization of mice with model antigens: Female BALB/c mice (aged 8-10 weeks) were supplied by Janvier (France), maintained under a 12 h light/12 h dark cycle and given free access to food and water. […]
Titer analysis: Peptide ELISAs were performed according to standard procedures using 96-well plates (Nunc Medisorp plates; Thermofisher, Cat Nr 467320) coated for 1 h at RT with BSA-coupled peptides (30 nM, dissolved in PBS) and incubated with the appropriate buffers while shaking (blocking buffer, 1% BSA, lx PBS; washing buffer, 1×PBS/0.1% Tween; dilution buffer, 1×PBS/0.1% BSA/0.1% Tween). After serum incubation (dilutions starting at 1:50 in PBS; typically in 1:3 or 1:2 titration steps), bound antibodies were detected using Horseradish Peroxidase-conjugated goat anti-mouse IgG (Fc) from Jackson immunoresearch (115-035-008). After stopping the reaction, plates were measured at 450 nm for 20 min using TMB. […]

“SADC-E006: Prototypic SADC: C-terminally cysteinylated peptide E006 (VKKIHIPSEKG) linked via sulfo-GMBS to mouse serum albumin scaffold” was tested, and the “antibody titer after SADC application” value was “clearly reduce the titers”.
